From patent US7528227B2, “Histone H2A peptide derivatives and uses thereof” (dated 2009)

What was measured:
[1] = Hydroxyl radical scavenging, CoCl2/Na2SeO3/luminol/glucose oxidase luminescence; conditions: CoCl2/Na2SeO3/luminol/glucose oxidase in HBSS; as a function of peptide concentration
[2] = Hydroxyl radical scavenging, horseradish peroxidase/luminol/glucose oxidase luminescence; conditions: HRP/luminol/glucose oxidase in HBSS; as a function of peptide concentration
[3] = system: experimental autoimmune encephalitis; experiment: Experimental autoimmune encephalitis (MOG 35-55), oral or i.p. treatment from onset of symptoms
[4] = system: HaCaT cells; experiment: SM-induced cytotoxicity in HaCaT cells (MTT)
[5] = system: HaCaT cells; experiment: Hydrogen peroxide-induced cytotoxicity in HaCaT cells (MTT); conditions: for number of viable cells: 4 hours pre-incubation, H2O2 1 mM 24 hours
[6] = system: HaCaT cells; experiment: LPA-induced luminescence in MIIIM1 peptide-transfected HaCaT cells; conditions: peptide-transfected cells vs control cells; FIG. 17
[7] = system: carrageenan-induced inflammation; experiment: Carrageenan-induced inflammation in male rats; conditions: injected 7, 5, 3 days and 20 min prior to carrageenan, FIG. 16
[8] = system: experimental autoimmune encephalitis; experiment: Experimental autoimmune encephalitis (MOG 35-55), intracardial peptide at immunization; conditions: intracardial 1 mg/kg
[9] = system: peritonitis; experiment: Thioglycolate-induced peritonitis; conditions: i.v. 1 mg/kg; three days after thioglycolate; FIG. 28
[10] = system: MPTP-treated mice; experiment: MPTP model of Parkinson's disease; conditions: oral 10 mg/kg 8, 6, 4 and 1 days prior and 1 and 3 days post MPTP
[11] = system: LPS-induced mortality; experiment: LPS-induced mortality (sepsis model)
[12] = system: carrageenan-induced inflammation; experiment: Carrageenan-induced inflammation in mice; conditions: injected 7, 5, 3 days and 20 min prior to carrageenan; FIG. 15
[13] = system: arthritic mice; experiment: Collagen-induced arthritis, joint swelling; conditions: intracardial 1 mg/kg at start of swelling, repeated 7, 11 and 14 days later; FIG. 12
[14] = Degradation of peptide in mouse serum in vitro
[15] = Degradation of peptide in human serum in vitro
[16] = system: mouse peritoneal neutrophils; experiment: PMA-induced oxidative burst in peritoneal neutrophils; conditions: PMA 2.5 μM, peptide added 1 minute later; luminescence; FIG. 9, 10
[17] = system: drain lymph nodes; experiment: Cell number in drain lymph nodes of PLP-immunized mice; conditions: oral 10 mg/kg 3 times a week from immunization; ten days after immunization; FIG. 29
[18] = Metal chelating: incubation with CoCl2, HPLC separation, MS and cobalt content
[19] = oral 10 mg/kg on days 9, 11, 14, 18, 21, 23, 25, 28 after MOG, FIG. 24

For “H-Lys-Ala-Asn-Tyr-MeAla-Glu-Arg-Val-Gly-OH”, which “scavenging of free hydroxyl radicals” value [1] is on record?
The value was “scavenging free hydroxyl radicals”.

What does the source list for “H-Lys-Gly-His-Tyr-Ala-Glu-Arg-Val-Gly-Cys-OH”?
scavenging of free hydroxyl radicals [2]: scavenging free hydroxyl radicals; neurological score ([3]; i.p. 1 mg/kg on days 9, 11, 14, 16, 18, 21, 23, 25, 28 after MOG, FIG. 25): significantly improved; neurological symptoms (score 0-6) [3, 19]: reduced the neurological symptoms

With `CSCC[C@H](N)C(=O)N[C@@H](CCCCN)C(=O)NCC(=O)N[C@@H](Cc1c[nH]cn1)C(=O)N[C@@H](Cc1ccc(O)cc1)C(=O)N[C@@H](C)C(=O)N[C@@H](CCC(=O)O)C(=O)N[C@@H](CCCNC(=N)N)C(=O)N[C@H](C(=O)NCC(=O)O)C(C)C` as the molecule, how does the reduction of viability ([4]; peptide-transfected HaCaT cells, 1 μM SM, MTT after 24 hours (control cells 87%)) read?
Its reduction of viability is 59%.

What about the reduction of viability ([5]; peptide-transfected HaCaT cells, 500 μM hydrogen peroxide, MTT after 24 hours (control cells 71%)) of the same molecule?
Its reduction of viability is 38%.

What about the LPA-induced luminescence [6] of the same molecule?
The LPA-induced luminescence was “significantly lower luminescence”.

What does the source list for “H-Lys-Gly-Asn-Tyr-Ala-Glu-Arg-Val-Gly-OH”?
subplantar swelling [7]: anti-inflammatory effect; neurological score ([8]; female C57BL mice, FIG. 13): to a lesser extent

What does the source list for `CC(C)[C@H](NC(=O)[C@H](CCCNC(=N)N)NC(=O)[C@H](CCC(=O)O)NC(=O)[C@H](C)NC(=O)[C@H](Cc1ccc(O)cc1)NC(=O)[C@H](Cc1c[nH]cn1)NC(=O)CNC(=O)[C@@H](N)CCCCN)C(=O)NCC(=O)O`?
cell number in the peritoneal lavage [9]: reduce the cell number; dopamine levels in striatum ([10]; FIG. 34): prevent the reduction of dopamine levels; behavioral manifestations (pole test, open field) ([10]; FIGS. 31-33): inhibit the behavioral manifestations; interval between administration and LPS injection that achieved the higher survival values ([11]; FIG. 37): 3 h; weight gain of kidney, spleen, liver and lung ([11]; LPS-treated mice, FIGS. 38A-D): reduce the weight gain; LPS-induced mortality ([11]; i.v. single 1 mg/kg 3 days prior to LPS 1.2 mg/mouse i.p., FIG. 35): reduce LPS-induced mortality; subplantar swelling [12]: anti-inflammatory effect; joint swelling [13]: very potent in reducing joint swelling; number of viable cells ([4]; 30 μg/ml peptide, 4 hours pre-incubation, SM 1 μM 24 hours, FIG. 20): increased the number of viable cells; subplantar swelling [7]: anti-inflammatory effect; T1/2 [14]: 7 min; T1/2 [15]: 14 min; effect on oxidative burst [16]: protective effect; number of cells in drain lymph nodes [17]: significantly reduced; binding of cobalt ([18]; 1 mg/ml peptide, 10 μM or 30 μM CoCl2, 3 minutes room temperature, HPLC/MS): cobalt-IIIM1 complex; Cobalt content ([18]; Peak I, retention time 18.2 min (IIIM1)): <0.5 µg/L; Cobalt content ([18]; Peak II, retention time 19.1 min (cobalt-IIIM1 complex)): 7.5 µg/L; neurological score ([8]; female C57BL mice, FIG. 13): anti-multiple sclerosis effect; neurological score ([8]; male C57BL mice, FIG. 14): anti-multiple sclerosis effect; neurological symptoms ([3]; i.p., injected only twice, after the second injection, FIG. 26): severe neurological symptoms, more than those of the controls; neurological symptoms (score 0-6) ([3]; oral 10 mg/kg on days 7, 9, 12, 14, 16, 19 after MOG, FIG. 23): efficiently eliminates the neurological symptoms; neurological symptoms (score 0-6) [3, 19]: reduced the neurological symptoms

Which “scavenging of free hydroxyl radicals” value [2] does the source give for “H-Lys-Gly-His-Tyr-MeAla-Glu-Arg-Val-Gly-OH” here?
The value was “scavenging free hydroxyl radicals”.

Which “number of viable cells” value ([5]; 10 μg/ml of each fragment, FIG. 21) does the source give for H-Ala-Glu-Arg-Val-Gly-OH here?
The value was “beneficial effect, though it was lower than that obtained by the mixture”.

For H-Gly-His-Tyr-Ala-Glu-Arg-Val-Gly-OH, which “number of viable cells” value ([5]; 10, 30 and 100 μg/ml, FIG. 22) is on record?
Its value is “increased significantly”.
